Ab-14 heavy chain CDR variants: yeast mating affinities

Reference: Engelhart et al. 2022, doi:10.1038/s41597-022-01779-4. File: FLAb, binding data.

Target: peptide PDVDLGDISGINAS, taken from heptad repeat 2 (HR2) of SARS-CoV-2 spike.

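The parent was found by panning a naive human phage display library on the peptide. The library (AAYL49) carries one to three amino acid substitutions per variant, with no insertions or deletions. The scFvs were displayed on barcoded MATa yeast, the peptide on MATalpha yeast. After mating in shaken culture at 30 °C for 16 h, diploids were selected and their barcode pairs sequenced. Each replicate has its own calibration line, from reference interactions of the BCL2 family. Each pool was mated in three replicate cultures.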

Parent: Ab-14, a human scFv built as VH, a 15-residue (Gly4Ser)3 linker, VL. Only the CDRs of the heavy chain vary.
VH: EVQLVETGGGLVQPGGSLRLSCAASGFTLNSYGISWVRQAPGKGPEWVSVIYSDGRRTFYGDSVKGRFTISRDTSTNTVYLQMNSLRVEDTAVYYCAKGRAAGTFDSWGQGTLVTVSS
VL: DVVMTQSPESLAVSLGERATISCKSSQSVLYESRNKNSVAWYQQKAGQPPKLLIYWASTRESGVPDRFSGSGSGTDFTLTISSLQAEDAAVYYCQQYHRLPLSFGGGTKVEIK

Variants are written as CDR1, CDR2 and CDR3 of the heavy chain (limits as in the source). Parent: GFTLNSYGIS, VIYSDGRRTFYGDSVK, GRAAGTFDS. Scale: log10 of Kd in nM, estimated from mating counts; low values are strong binders. "nd" marks a missing value. The strain was present, yet no cells mated with the target were sequenced in that replicate, which points to weak or no binding. Three control strains display no target. For library AAYL49, 15% of the pairings with them gave a signal, with a median of 4.06 and one signal in twenty below 2.83, so weak values seen in few replicates may be background. For each scFv, signals with the empty controls are counted beside the result, with their mean in brackets.

| # | CDR-H1 | CDR-H2 | CDR-H3 | replicates, log10 nM | signal with controls |
|---|---|---|---|---|---|
| 1 | GFTLNSYGIS | VIYSDGRRTFYGDSVM | GIAAGGFDS | nd 3.64 nd | 4/9 (4.19) |
| 2 | GFTLNSYAIS | VIYSDSRRTFYGDSVK | KRAAGTFDS | nd nd nd | 1/9 (3.35) |
| 3 | GFTLNSYGIS | SIYSGGRRTFYFDSVK | GRAAGTFDS | nd nd nd | 0/9 |
| 4 | GFTLNSYGSS | VIWSDGRRFFYGDSVK | GRAAGTFDS | nd nd nd | 1/9 (3.04) |
| 5 | GFTLNSYGIS | NIYSDGRRTFYGDSVK | GRGAGMFDS | nd nd 2.86 | 0/9 |
| 6 | GFTLNSYGIS | VIYSDGRRTFYGWSAK | DRAAGTFDS | nd nd nd | 0/9 |
| 7 | GFTLNRYGSS | HIYSDGRRTFYGDSVK | GRAAGTFDS | nd nd 3.31 | 1/9 (5.18) |
| 8 | GFTLNSYGIK | VIFDDGRRTFYGDSVK | GRAAGTFDS | nd nd nd | 0/9 |
| 9 | GFHLNSYGIE | VIYSDGRRTFYGDSVK | GRYAGTFDS | nd nd nd | 1/9 (3.59) |
| 10 | GFTLESYGIS | VIYSDGRRTFYQDSVK | GRTAGTFDS | 1.99 1.69 2.02 | 2/9 (4.70) |
| 11 | GFTFNSYGIS | VYYSDGRRTFYGDSVK | GRAAGTFDS | nd nd nd | 0/9 |
| 12 | GFTLMSLGIS | VIYSDGIRTFYGDSVK | GRAAGTFDS | 2.37 2.95 2.96 | 1/9 (5.50) |
| 13 | GFTLNSYGIS | VIFSDGRRTFYGDSVK | GRAAWTFWS | 1.98 1.82 1.94 | 6/9 (4.53) |
| 14 | GFTLNSYGIS | VIYSDGRNTFYGDSVK | GRAYGTFDN | nd nd nd | 2/9 (3.52) |
| 15 | GFTLNSYGIS | VIYSKGRRTFYGTSVK | GRAKGTFDS | nd nd nd | 1/9 (4.00) |
| 16 | GFTLNSYGIS | VIYSDGCRTFYGDSVK | GRAAKTNDS | 1.22 1.34 0.92 | 0/9 |
| 17 | GFTLNSYGIS | VIYSDGRRTFYADSVK | QRAAGVFDS | 0.84 1.18 1.49 | 3/9 (3.67) |
| 18 | GFTLNSYGIS | VPYQDGRRTFYMDSVK | GRAAGTFDS | nd nd nd | 2/9 (2.75) |
| 19 | GFTLNSYGIS | VIYADGRRTFYGDCVK | GRLAGTFDS | 1.47 1.65 1.61 | 6/9 (4.10) |
| 20 | GFTLNSYGIS | VIYSDGRRTFYGDSWK | GRADGMFDS | 5.53 4.76 4.02 | 7/9 (4.78) |
| 21 | EETLNSYGIS | VIYSDGRRPFYGDSVK | GRAAGTFDS | nd 3.48 nd | 0/9 |
| 22 | GFTLNSYGIS | RIYSDGRRTFYGDSVK | GRAACTQDS | 3.12 nd 4.68 | 1/9 (3.81) |
| 23 | GFTLVSTGIS | VIYSDGRRTFYGDSVK | GRAAGTFYS | nd nd 3.64 | 2/9 (3.97) |
| 24 | GFPLNSYGIC | VIYSDGRRTFYGDFVK | GRAAGTFDS | nd nd nd | 1/9 (2.75) |
| 25 | GFMLNSYGIS | VIYSDGRRTFYTDSVK | GRAAGTFES | 0.89 1.25 1.04 | 0/9 |
| 26 | GFTLNSYGIS | VIYSDGRRTFYHDSVI | GRAAGTFDK | 1.89 1.97 2.28 | 0/9 |
| 27 | CFTLNSKGIS | VIYSDGRRTFYGDPVK | GRAAGTFDS | 1.93 2.20 2.17 | 2/9 (4.58) |
| 28 | GFTLNSYGIS | VIYSDGRRTFYGDSLK | FRAPGTFDS | nd 3.47 nd | 0/9 |
| 29 | GFTLNHYPIS | VIYSDGRRLFYGDSVK | GRAAGTFDS | 5.74 nd nd | 2/9 (3.47) |
| 30 | GFTLNNYGIS | VIYSDGRRTFYGKSNK | GRAAGTFDS | nd 3.09 nd | 2/9 (4.65) |
| 31 | GFTLWSYGIS | QIYSDGVRTFYGDSVK | GRAAGTFDS | nd nd nd | 0/9 |
| 32 | GFTLNSYGIS | VIYSDGRRTNYGDSVK | GRAAGTTDN | nd nd nd | 0/9 |

Extract of 4 entries:

| CDR-H1 | CDR-H2 | CDR-H3 | replicates, log10 nM | signal with controls |
|---|---|---|---|---|
| GFHLNSYGIE | VIYSDGRRTFYGDSVK | GRYAGTFDS | nd nd nd | 1/9 (3.59) |
| GFTLNSYGIS | VIYSDGRNTFYGDSVK | GRAYGTFDN | nd nd nd | 2/9 (3.52) |
| GFTLNSYGIS | VIYSDGRRTFYGDSWK | GRADGMFDS | 5.53 4.76 4.02 | 7/9 (4.78) |
| GFTLNSYGIS | VIYSDGRRTNYGDSVK | GRAAGTTDN | nd nd nd | 0/9 |